According to the supplement of paper PMC12297408:
Only a part is listed here, and it is no random draw.

Tested on: Plasmodium falciparum NF54/iGP1_RE9H ulg8 stage V gametocytes
Assay: gametocyte viability (luciferase signal relative to DMSO control) (% of DMSO control); higher = less gametocytocidal activity, active = 50 or less
Conditions: exposure time: 72 h
Method in brief: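 Compounds from 10 mM DMSO stocks were spotted at nanolitre scale into 96-well plates, and day-12 stage V NF54/iGP1_RE9Hulg8 gametocytes (~2.5% gametocytemia, 3% hematocrit; medium with 0.5% Albumax II) were added to reach 10 µM or 1 µM, one well per concentration. The plates were kept at 37 °C for 72 h. Luminescence was then read on an IVIS Lumina II after mixing 90 µl of culture with 10 µl D-luciferin (30 mg/ml). Viability values are relative to the plate's mean DMSO vehicle signal.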

Question: For COc1cc(Br)c(C[N+]2(CCOCCC3CCC4CC3C4(C)C)CCOCC2)cc1OC (configuration not stated) [Pinaverium bromide], which gametocyte viability (concentration: 1 µM) is on record?
Answer: inactive: 74.1

Question: What about the gametocyte viability (concentration: 10 µM) of the same compound?
Answer: active: 28.1
